This passage reports IC50 results from patent US9708318B2, “Bicyclic heterocycles as FGFR4 inhibitors” (Incyte Corporation, priority 2015, dated 2017).

Amino acid sequences for entries named in this document (tags omitted). Residues count along the entry.
UniProt P22455, 22-802: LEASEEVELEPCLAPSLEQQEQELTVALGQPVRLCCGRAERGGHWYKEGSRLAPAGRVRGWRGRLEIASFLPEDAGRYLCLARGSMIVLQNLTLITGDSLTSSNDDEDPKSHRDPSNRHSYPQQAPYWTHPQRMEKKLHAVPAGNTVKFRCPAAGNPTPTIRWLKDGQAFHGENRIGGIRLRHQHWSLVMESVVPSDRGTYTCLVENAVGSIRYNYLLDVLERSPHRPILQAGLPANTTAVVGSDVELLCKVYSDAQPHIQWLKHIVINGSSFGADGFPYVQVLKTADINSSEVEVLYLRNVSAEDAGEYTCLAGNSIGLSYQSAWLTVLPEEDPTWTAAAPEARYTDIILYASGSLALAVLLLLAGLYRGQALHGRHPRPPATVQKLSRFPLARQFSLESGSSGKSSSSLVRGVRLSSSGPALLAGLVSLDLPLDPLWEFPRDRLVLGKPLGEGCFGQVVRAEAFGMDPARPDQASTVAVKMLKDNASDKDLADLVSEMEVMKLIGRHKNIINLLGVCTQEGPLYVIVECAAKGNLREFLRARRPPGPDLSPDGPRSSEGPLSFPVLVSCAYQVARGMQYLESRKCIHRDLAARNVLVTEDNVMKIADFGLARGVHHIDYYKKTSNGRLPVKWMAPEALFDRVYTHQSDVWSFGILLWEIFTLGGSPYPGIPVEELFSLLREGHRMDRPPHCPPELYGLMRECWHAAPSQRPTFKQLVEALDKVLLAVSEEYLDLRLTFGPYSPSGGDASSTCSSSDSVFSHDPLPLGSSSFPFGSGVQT
UniProt P11362, 22-822: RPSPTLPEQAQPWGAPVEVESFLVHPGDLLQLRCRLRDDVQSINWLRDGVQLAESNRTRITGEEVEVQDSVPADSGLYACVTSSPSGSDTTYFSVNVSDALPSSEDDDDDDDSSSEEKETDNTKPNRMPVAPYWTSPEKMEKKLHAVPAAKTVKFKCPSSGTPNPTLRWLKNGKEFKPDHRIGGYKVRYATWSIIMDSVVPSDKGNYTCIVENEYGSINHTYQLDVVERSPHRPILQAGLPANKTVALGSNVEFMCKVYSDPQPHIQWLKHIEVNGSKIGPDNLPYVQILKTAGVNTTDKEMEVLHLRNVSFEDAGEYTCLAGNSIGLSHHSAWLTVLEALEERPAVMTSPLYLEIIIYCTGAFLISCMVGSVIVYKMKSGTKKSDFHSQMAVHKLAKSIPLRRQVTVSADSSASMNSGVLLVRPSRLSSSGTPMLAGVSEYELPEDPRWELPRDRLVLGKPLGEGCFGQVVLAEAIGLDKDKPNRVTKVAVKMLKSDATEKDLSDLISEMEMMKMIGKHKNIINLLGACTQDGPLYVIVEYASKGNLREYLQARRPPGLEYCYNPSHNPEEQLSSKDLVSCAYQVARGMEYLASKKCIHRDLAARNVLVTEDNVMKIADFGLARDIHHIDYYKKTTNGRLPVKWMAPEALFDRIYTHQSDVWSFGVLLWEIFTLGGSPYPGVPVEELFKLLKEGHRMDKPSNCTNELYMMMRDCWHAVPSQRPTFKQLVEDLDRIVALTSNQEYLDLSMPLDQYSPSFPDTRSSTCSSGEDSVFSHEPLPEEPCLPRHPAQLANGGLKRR

One experiment has as its target FGFR4 (Homo sapiens (Human), UniProt P22455). Nature of the experiment: FGFR Enzymatic Assay (FRET peptide phosphorylation), FGFR4. The experiment is classed as biochemical. The protocol:
The inhibitor potency of the exemplified compounds was measured in an enzyme assay that measures peptide phosphorylation using FRET measurements to detect product formation. Inhibitors were serially diluted in DMSO and a volume of 0.5 μL was transferred to the wells of a 384-well plate.
The enzymes were purchased from Millipore or Invitrogen.
GraphPad prism3 was used to analyze the data.

Another experiment has as its target FGFR1 (Homo sapiens (Human), UniProt P11362). As to the kind of experiment: FGFR Enzymatic Assay (FRET peptide phosphorylation), FGFR1. The conditions noted are these: FGFR1 IC50 (nM), pre-incubated for 4 hours.

Usually IC50 stands for the concentration needed to halve the response being measured. High values mean weaker potency, low ones greater potency. For the compound `COc1cc(OC)c(F)c(N2Cc3cnc(-c4cn(C)nc4C)cc3N(c3cccc(C#N)c3)C2=O)c1F` [Example 60, 3-(3-(2,6-difluoro-3,5-dimethoxyphenyl)-7-(1,3-dimethyl-1H-pyrazol-4-yl)-2-oxo-3,4-dihydropyrido[4,3-d]pyrimidin-1(2H)-yl)benzonitrile], the 50% inhibitory concentration (IC50) on FGFR4 and on FGFR1 was 30 to 200 nM each time.
